The results in this text go back to PubChem BioAssay AID1987 (The Scripps Research Institute Molecular Screening Center, 2009).

By UniProt entry, the sequences of proteins in these tests, tags left out.
UniProt P53041, whole entry: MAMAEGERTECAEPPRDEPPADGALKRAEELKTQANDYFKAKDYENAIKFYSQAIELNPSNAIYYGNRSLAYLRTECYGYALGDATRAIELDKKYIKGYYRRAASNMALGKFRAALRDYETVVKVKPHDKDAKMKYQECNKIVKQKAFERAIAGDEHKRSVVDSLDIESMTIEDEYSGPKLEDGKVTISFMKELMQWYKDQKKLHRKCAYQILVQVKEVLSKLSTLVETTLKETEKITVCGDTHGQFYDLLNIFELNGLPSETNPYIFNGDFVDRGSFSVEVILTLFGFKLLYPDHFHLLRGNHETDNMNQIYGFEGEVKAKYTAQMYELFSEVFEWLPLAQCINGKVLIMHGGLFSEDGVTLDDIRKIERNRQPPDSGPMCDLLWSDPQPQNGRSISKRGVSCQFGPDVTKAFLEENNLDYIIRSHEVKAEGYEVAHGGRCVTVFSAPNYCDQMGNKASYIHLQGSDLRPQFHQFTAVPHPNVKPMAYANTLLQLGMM

The entries are a selection whose mix differs from that of the whole data set. Active and inactive are the calls of the source.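 The calls were made as follows: active = inhibition above the campaign's mean inhibition across all tested compounds plus 3 SD (cut at about 9.5% in these data); inactive = the rest.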

As usually defined, the inhibition is the change of the read-out against control, counted positive when it falls.

This experiment addresses Serine/threonine-protein phosphatase 5 (Homo sapiens) (UniProt P53041). Put plainly: inhibition of human PP5 catalytic activity – biochemical, fluorescence, primary screen (AID 1987).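 Also: 0% = DMSO only and 100% = 100 µM cantharidin control.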 The conditions noted are these: purified PP5c, OMFP substrate fluorescence; at 6.7 µM; hits give high values.
`CCN1CCC(Nc2cccc(F)c2)CC1`: the inhibition is inactive: 0.3%.

For `CN(C)c1ccc(C(=O)NCC2(N3CCCCC3)CCCCC2)cc1`, the inhibition is inactive: -3.55%. Regarding `O=C(NCC1(N2CCCCC2)CCCCC1)c1ccco1`, the inhibition was inactive: 2.58%. Consider `COc1cc(OC)cc(C(=O)NCC2(N3CCCCC3)CCCCC2)c1`, for which the inhibition is inactive: -1.86%. Take `Fc1ccccc1NC1CCN(Cc2ccccc2)CC1`: the inhibition is inactive: 2.35%.

Take `Cc1ccc(C(=O)NCC2(N3CCCCC3)CCCCC2)o1`: the inhibition was inactive: -1.25%. Regarding `CCC(CO)(C(=O)OC1CN2CCC1CC2)c1ccccc1` (stereo unspecified), the inhibition was inactive: -2.42%. The figure for `COc1cc(OC)cc(C(=O)NCC2(N3CCOCC3)CCCCC2)c1` is inactive: 1.67%; for `COc1cccc(C(=O)N(c2cc(C)cc(C)c2)C2CCN(C(=O)OC(C)(C)C)CC2)c1` it is inactive: 5.88%; for `CCCOc1ccc(C)cc1CN(CCCl)CCCl` it is inactive: 1.57%. The figure for `CN1CCC(Nc2ccc(Cl)cc2)CC1` is inactive: 0.12%; for `CN1CCC(Nc2ccc(F)c(Cl)c2)CC1` it is inactive: 4.29%; for `CCOc1ncccc1C(=O)NCC1(N2CCOCC2)CCCCC1` it is inactive: -1.34%.

Consider `CCCOc1ccc(C(=O)NCC2(N(C)C)CCCCC2)cc1`, for which the inhibition is inactive: 2.77%. Consider `O=C(O)C1(Nc2ccccc2)CCN(Cc2ccccc2)CC1`, for which the inhibition was inactive: -2.18%. Turning to `CC(C)(C)OC(=O)N1CCC(Nc2ccccc2)CC1`, the inhibition is inactive: 1.33%. `N/C(=N\O)c1c(N)no[n+]1[O-]`: the inhibition is inactive: -0.26%.

Consider `CCOC(=O)N1CCC(Nc2ccc(C)cc2)CC1`, for which the inhibition was inactive: 1.43%. The figure for `O=C(OC1CN2CCC1CC2)C1c2ccccc2C=Cc2ccccc21` (stereo unspecified) is inactive: 1.46%. `CCc1cc(C(=O)NCC2(N3CCCCC3)CCCCC2)sc1C`: the inhibition is inactive: -1.88%. Regarding `O=C(NCC1(N2CCOCC2)CCCCC1)c1cc(Br)ccc1Cl`, the inhibition was inactive: 2.56%.

As for `COc1ccc(C(=O)NCC2(N3CCOCC3)CCCCC2)cc1OC`, the inhibition is inactive: 2.42%. Regarding `CCCN1CCC(Nc2cc(OC)cc(OC)c2)CC1`, the inhibition is inactive: 0.2%.

For the molecule `c1ccc(CN2CCC(Nc3ccccc3)CC2)cc1`, the inhibition was inactive: -1.25%. In the case of `CN(C)C1(CNC(=O)c2cccc(C#N)c2)CCCCC1`, the inhibition was inactive: -1.67%.

For `CC(C)(C)OC(=O)N1CCC(N(C(=O)c2ccccc2)c2ccc(Cl)cc2)CC1`, the inhibition is inactive: 0.08%. `N#Cc1ccc(C(=O)NCC2(N3CCCCC3)CCCCC2)cc1`: the inhibition was inactive: 0.22%. Regarding `O=C(NCC1(N2CCCCC2)CCCCC1)c1cccc(C(F)(F)F)c1`, the inhibition is inactive: 0.33%. Consider `CN1CCN(CCOC(=O)C(O)(c2ccccc2)c2ccccc2)CC1`, for which the inhibition is inactive: 2.22%. In the case of `COc1ccc(NC2CCN(C(=O)OC(C)(C)C)CC2)cc1`, the inhibition is inactive: -2.11%. In the case of `COc1cc(C(=O)NCC2(N3CCCCC3)CCCCC2)ccc1OC(F)F`, the inhibition was inactive: 1.14%.

Regarding `O=C(NCC1(N2CCOCC2)CCCCC1)c1cc(=O)[nH]c2ccccc12`, the inhibition was inactive: -6.58%.

Consider `O=C(NCC1(N2CCCCC2)CCCCC1)c1ccc(OC(F)F)cc1`, for which the inhibition was inactive: 2.57%. `O=C(NCC1(N2CCCCC2)CCCCC1)c1cccc([N+](=O)[O-])c1`: the inhibition was inactive: -2.23%. As to `N#CC1(Nc2ccccc2)CCN(CCc2ccccc2)CC1`, the inhibition was inactive: 2.39%. For `CCN1CCC(Nc2ccc(Cl)cc2)CC1`, the inhibition was inactive: -1.98%.

Consider `O=C(NCC1(N2CCCCC2)CCCCC1)c1cncc(Br)c1`, for which the inhibition is inactive: -1.94%. Take `CN1CCC(Nc2cccc(F)c2)CC1`: the inhibition is inactive: 2.16%. Regarding `CN(C)c1cccc(C(=O)NCC2(N3CCCCC3)CCCCC2)c1`, the inhibition is inactive: 0.8%.

In the case of `COc1ccc(CN(CCCl)CCCl)cc1Cl`, the inhibition is inactive: 2.3%. For the molecule `CC(C)c1ccc(NC2CCN(C(=O)OC(C)(C)C)CC2)cc1`, the inhibition is inactive: -0.28%.

On to `COc1cc(OC)c(C(=O)NCC2(N(C)C)CCCCC2)cc1OC`, for which the inhibition was inactive: 1.53%. `O=C(NCC1(N2CCOCC2)CCCCC1)c1cc2ccccc2o1`: the inhibition was inactive: 3.03%. The figure for `Cc1cc(C)cc(N(C(=O)c2ccccc2)C2CCN(C(=O)OC(C)(C)C)CC2)c1` is inactive: 2.66%. With `O=C(NCC1(N2CCCCC2)CCCCC1)c1ccc(Cl)nc1`, the inhibition is inactive: -0.4%. Take `CCOC(=O)N1CCC(Nc2ccc(OC)cc2)CC1`: the inhibition is inactive: 2.34%. The figure for `COc1ccc(Cl)cc1C(=O)NCC1(N2CCOCC2)CCCCC1` is inactive: 1.74%. As for `O=C(OC1CN2CCC1CC2)C1c2ccccc2Oc2ccccc21` (stereo unspecified), the inhibition was inactive: 3.74%.

Take `O=C(NCC1(N2CCCCC2)CCCCC1)c1ccc(Cl)s1`: the inhibition was inactive: 1.4%. The figure for `N#CC1(Nc2ccccc2)CCN(Cc2ccccc2)CC1` is inactive: -1.77%; for `O=C(NCC1(N2CCCCC2)CCCCC1)c1cccs1` it is inactive: -1.73%. As for `O=C(NCC1(N2CCCCC2)CCCCC1)c1ccc(=O)[nH]c1`, the inhibition is inactive: 1.6%.

Consider `COc1ccc(C(=O)NCC2(N3CCCCC3)CCCCC2)c(OC)c1OC`, for which the inhibition is inactive: 2.64%. The figure for `CC(C)(C)OC(=O)N1CCC(N(C(=O)c2ccccc2)c2ccc(F)cc2)CC1` is inactive: 1.77%; for `COc1ccc(C(=O)NCC2(N3CCCCC3)CCCCC2)cc1` it is inactive: 1.33%.

Turning to `CSc1ccccc1C(=O)NCC1(N2CCCCC2)CCCCC1`, the inhibition is inactive: 0.49%.

On to `Cc1ccc(OCC(C)C)c(CN(CCCl)CCCl)c1`, for which the inhibition is inactive: -0.83%. As to `CCOC(=O)N1CCC(Nc2cccc(C)c2)CC1`, the inhibition is inactive: 1.41%. Take `CCOc1ccc(C)cc1CN(CCCl)CCCl`: the inhibition is inactive: 2.67%.

Take `COc1ccc(NC2CCN(CCc3ccccc3)CC2)c(OC)c1`: the inhibition is inactive: 2.7%. The figure for `O=C(NCC1(N2CCCCC2)CCCCC1)c1ccc(F)cc1` is inactive: 1.1%.
